Measured values published in article PMC6273235, “Phenolic Constituents of Medicinal Plants with Activity against Trypanosoma brucei” (Molecules, 2016).

Experiments:
[1] = test system: HEK293T cells; assay: Cytotoxicity assay (resazurin, 3 days), HEK293T; type: cell-based, human; conditions: CC50 (HEK293T)/IC50 (T. brucei)
Experimental: (§1) HEK293T and HepG2 cells were cultured at 37 °C with 5% CO2 in Dulbecco’s modified eagle medium containing 10% FBS. Both cell lines were plated individually in 384 well plates (4000 cells per well) and the natural compounds (two fold 10 points serial dilution starting from 5 ppm) were added for 3 days of incubation.

[2] = test system: HepG2 cells; assay: Cytotoxicity assay (resazurin, 3 days), HepG2; type: cell-based, human; conditions: CC50 (HepG2)/IC50 (T. brucei)
Experimental: as §1

COc1ccc([C@@H](O)[C@@H](C)Oc2ccc([C@H]3O[C@H](c4ccc(O[C@H](C)[C@H](O)c5ccc(OC)c(OC)c5)c(OC)c4)[C@H](C)[C@H]3C)cc2OC)cc1OC [Compound 13, manassantin A]
s.i (selectivity index) HEK239T [1]: >2.18 | s.i (selectivity index) HepG2 [2]: >2.52
